Source: ChEMBL document CHEMBL4118142, “Novel amidrazone derivatives: Design, synthesis and activity evaluation” (Bioorg Med Chem, 2018)
The source made the active and inactive calls. No cut-off for these calls is given here.

Target: T1, Acid-sensing ion channel 1 (Rattus norvegicus) (UniProt P55926)
T1 sequence (whole entry): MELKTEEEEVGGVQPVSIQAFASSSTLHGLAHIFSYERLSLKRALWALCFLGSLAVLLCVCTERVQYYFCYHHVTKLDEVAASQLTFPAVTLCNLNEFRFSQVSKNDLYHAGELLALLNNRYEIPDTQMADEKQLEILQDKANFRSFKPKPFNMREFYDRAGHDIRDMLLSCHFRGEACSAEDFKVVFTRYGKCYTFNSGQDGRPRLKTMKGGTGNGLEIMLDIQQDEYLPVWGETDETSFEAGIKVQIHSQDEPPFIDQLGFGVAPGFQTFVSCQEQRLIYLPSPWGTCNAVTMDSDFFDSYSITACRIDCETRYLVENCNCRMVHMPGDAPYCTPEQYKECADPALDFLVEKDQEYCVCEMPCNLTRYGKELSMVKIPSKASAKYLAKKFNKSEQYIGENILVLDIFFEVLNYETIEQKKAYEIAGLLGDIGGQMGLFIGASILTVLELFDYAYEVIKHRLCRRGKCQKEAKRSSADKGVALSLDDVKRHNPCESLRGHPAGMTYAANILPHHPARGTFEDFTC
Test: Inhibition of acid-induced ASIC1a protein expression in rat articular chondrocytes at 100 uM pretreated for 24 hrs followed by acid medium stimulation at pH 6 for 3 hrs by Western blot analysis
Format: cell-based
Outline: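 Freshly isolated primary rat articular chondrocytes were cultured in DMEM with 10% FBS at 37 °C and 5% CO2. They were pretreated with compound for 24 h at pH 7.4, then exposed to pH 6.0 medium for 3 h, with cells kept at pH 7.4 as control. After PBS washes, lysates were immunoblotted for ASIC1a against a β-actin internal control. Values are mean ± SD of three independent experiments.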

## N=C(N)NC(=O)c1nc(Cl)c(N)nc1N [AMILORIDE]
  inhibition: Active
